Only a part of the results on these compounds is given; other tests are left out.
Key:
[1] = Reference test: ammonium nitrate mixed with water in a 100 ml container placed in a 360 ml container of water; conditions: around 60 grams of 200 mesh ammonium nitrate in 50 grams water; after around 30 seconds; initial 25° C.

ammonium nitrate
temperature of the saturated solution in the 100 ml container [1]: −7 °C
Heat Absorbed (during dissolution of compound in 100 gm of water at 25° C. in kJ) (saturated solution in 100 gm of water at 25° C.): 48.13 kJ
Theoretical Change in Temperature of a saturated solution (° C.) (saturated solution, no heat loss): 46 °C

— US9039924B2 (priority 2010, dated 2015)
